Test results: ChEMBL document CHEMBL1129509, “Hypoxia-selective antitumor agents. 12. Nitrobenzyl quaternary salts as bioreductive prodrugs of the alkylating agent mechlorethamine” (1996)

Experiments:
UV4 = assay: Hypersensitivity factor is the ratio of IC50 for AA8/IC50 for UV4 cell line; conditions: Cricetulus griseus
EMT6 = assay: Hypersensitivity factor is the ratio of IC50 for AA8/IC50 for EMT6 cell line; conditions: Mus musculus

CN(CCCl)CCCl
Hypersensitivity factor (UV4): 42
Hypersensitivity factor (EMT6): 16
